# In PubChem BioAssay AID652197 (Broad Institute, 2013):
# Protein sequences, listed by entry. Tags and fused reporters are not part of them. Lines headed by an entry give the natural chain unless they say otherwise; changes in a name come on top.
# UniProt Q9NZ08: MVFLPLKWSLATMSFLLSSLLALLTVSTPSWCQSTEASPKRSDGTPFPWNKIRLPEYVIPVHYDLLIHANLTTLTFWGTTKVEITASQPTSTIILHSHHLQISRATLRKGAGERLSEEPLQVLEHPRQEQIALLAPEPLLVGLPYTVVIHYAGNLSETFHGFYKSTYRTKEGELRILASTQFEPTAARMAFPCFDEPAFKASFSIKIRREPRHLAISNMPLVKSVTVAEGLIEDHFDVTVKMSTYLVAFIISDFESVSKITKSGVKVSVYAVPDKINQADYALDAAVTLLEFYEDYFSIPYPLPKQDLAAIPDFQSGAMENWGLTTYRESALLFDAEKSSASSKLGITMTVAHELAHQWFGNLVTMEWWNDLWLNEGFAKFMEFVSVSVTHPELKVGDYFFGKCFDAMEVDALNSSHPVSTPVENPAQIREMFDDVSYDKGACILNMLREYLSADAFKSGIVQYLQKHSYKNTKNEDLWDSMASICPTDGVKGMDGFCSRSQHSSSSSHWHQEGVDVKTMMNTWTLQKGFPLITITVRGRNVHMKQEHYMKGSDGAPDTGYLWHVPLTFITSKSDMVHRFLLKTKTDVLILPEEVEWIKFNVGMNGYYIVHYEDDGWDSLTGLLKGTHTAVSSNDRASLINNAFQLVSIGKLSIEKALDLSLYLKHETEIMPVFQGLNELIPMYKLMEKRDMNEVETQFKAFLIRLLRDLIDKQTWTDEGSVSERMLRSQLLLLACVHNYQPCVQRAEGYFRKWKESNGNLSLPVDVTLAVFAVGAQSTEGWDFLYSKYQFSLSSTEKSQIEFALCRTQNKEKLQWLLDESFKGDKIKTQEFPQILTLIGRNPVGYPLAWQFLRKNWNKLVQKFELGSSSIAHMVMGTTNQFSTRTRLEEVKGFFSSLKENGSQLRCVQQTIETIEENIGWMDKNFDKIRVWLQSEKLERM
# The list shows a part of the results, in another mix than the full data. The source made the active and inactive calls.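 The calls were made as follows: active = mean replicate inhibition of at least 30%, or all replicates individually reaching that 30% level; inactive = mean below 30% and not every replicate reaching it.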
# Biological target: Endoplasmic reticulum aminopeptidase 1 (Homo sapiens) (UniProt Q9NZ08)
# Test: inhibition of ERAP1 peptide trimming enzyme – biochemical, single point, plate reader, primary screen (AID 652197);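 also: 0% = neutral control wells and 100% = L-leucinethiol positive control wells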
# Details: recombinant ERAP1, Leu-AMC fluorescence, 60 min; at 10.7 µM; stronger effect = higher value
row,Structure (SMILES),inhibition
1,CCCCOc1ccc(C(=O)NCC2(N3CCCCC3)CCCCC2)cc1OC,inactive: 2.53%
2,COP(=O)(OC)N1CC1c1ccccc1 (stereo unspecified),inactive: 1.1%
3,CC1CCNP(=O)(N(CCCl)CCCl)O1 (stereo unspecified),inactive: -2.75%
4,O=C(O)C(O)c1ccc(N(CCCl)CCCl)cc1 (stereo unspecified),inactive: -2.23%
5,O=[N+]([O-])c1ccc(Nc2ccc(Oc3ccc([N+](=O)[O-])cc3[N+](=O)[O-])cc2)c([N+](=O)[O-])c1,inactive: -1.01%
6,Cc1cc(SC(NC=O)C(Cl)(Cl)Cl)ncn1 (stereo unspecified),inactive: 2.58%
7,O=P(Nc1ccccn1)(c1cccc2ccccc12)c1cccc2ccccc12,inactive: -2.51%
8,CCOC(=O)Nc1cccc([As](=O)(O)O)c1,inactive: -1.21%
9,O=C(Nc1ccncc1[N+](=O)[O-])c1ccc([N+](=O)[O-])cc1[N+](=O)[O-],inactive: 2.07%
10,O=C(O)C(=O)c1ccc(N(CCCl)CCCl)cc1,inactive: -1.12%
11,COP1(=S)c2c(C)nn(CCC#N)c2N=C(c2ccc(F)cc2)N1C (stereo unspecified),inactive: -2.56%
12,COC(=O)C1(C)COP(=O)(N2CCCC2)OC1 (stereo unspecified),inactive: 0.037%
13,CCOC(=O)c1ccc(NC(=O)C(C)(CCl)SC)cc1 (stereo unspecified),inactive: 2.84%
14,O=C(OC1CN2CCC1CC2)c1cccc([N+](=O)[O-])c1 (stereo unspecified),inactive: 0.754%
15,COc1ccc2nc(NP(=O)(c3ccccc3)c3ccccc3)sc2c1,inactive: 1.29%
16,COc1cc(I)ccc1[As](=O)(O)O,inactive: 1.33%
17,O=P1(N(CCCl)CCCl)OCCCN1CCCl (stereo unspecified),inactive: 0.403%
18,O=P1(N(CCCl)CCCl)Nc2ccccc2N1,inactive: 1.75%
19,COc1ccc(CN2/C(=N\P(=O)(Oc3ccccc3)Oc3ccccc3)Cc3ccccc3C2C2CC2)cc1 (stereo unspecified),inactive: -0.402%
20,Cc1cc(=O)[nH]c(N[N+](=O)[O-])n1,inactive: -5.29%
21,Cc1c2c(nc3ccccc13)SC(C(Cl)Cl)C2 (stereo unspecified),inactive: -0.642%

row,Structure (SMILES),inhibition
1,COc1ccc(N/C(=N/P(=O)(N2CCOCC2)N2CCOCC2)N2CCOCC2)cc1,inactive: -2.87%
2,O=[N+]([O-])c1cc(Oc2ccc([N+](=O)[O-])cc2C(F)(F)F)cc([N+](=O)[O-])c1,inactive: -4.06%
3,Cc1ccc2nc3c(c(C)c2c1)CC(C(Cl)Cl)S3 (stereo unspecified),inactive: -2.37%
4,Cc1ccc(OP(=O)(Nc2ccc([N+](=O)[O-])cn2)Oc2ccc(C)cc2)cc1,inactive: -0.218%
5,[N-]=[N+]=NC1CCCCC1NC(=O)c1cc([N+](=O)[O-])cc([N+](=O)[O-])c1 (stereo unspecified),inactive: -0.567%
6,O=[As](O)(c1ccc(O)cc1)c1ccccc1O,inactive: 7.89%
7,C[As](=O)(O)c1cccc(C(=O)O)c1,inactive: 2.32%
8,COc1cc(C(=O)NCC2(N3CCOCC3)CCCCC2)ccc1OCC(C)C,inactive: -0.288%
9,O=[N+]([O-])c1ccc(-c2cc([N+](=O)[O-])c(O)c([N+](=O)[O-])c2)cc1,inactive: 1.66%
10,O=C(OC1CN2CCC1CC2)c1cccc2[nH]cnc12 (stereo unspecified),inactive: 0.987%
11,CC(C)NC(=O)NP(=O)(Oc1ccccc1)Oc1ccccc1,inactive: 3.69%
12,CC(C)c1ccc(OP(=O)(Nc2ccccn2)Oc2ccccc2F)cc1 (stereo unspecified),inactive: 5.65%
13,COC(=O)C1(C)COP(=O)(N2CCCCCC2)OC1 (stereo unspecified),inactive: -3.5%
14,O=C(O)COc1ccc([As](=O)(O)O)cc1[N+](=O)[O-],inactive: -1.7%
15,CCOP1(=S)c2c(C)nn(CCC#N)c2N=C(c2ccccc2F)N1C (stereo unspecified),inactive: 12%
16,O=P(Nc1nccs1)(Oc1ccccc1)Oc1ccccc1,inactive: 1.22%
17,CN(C)C(=O)c1cc([N+](=O)[O-])cc2c1-c1c(cc([N+](=O)[O-])cc1[N+](=O)[O-])C2=O,inactive: -5.78%
18,CN(C(=O)Cc1ccc(Cl)c(Cl)c1)[C@H]1CC[C@@]2(CCCO2)C[C@@H]1N1CCCC1,inactive: -5.24%
19,N#CCCN(C(=O)COC(=O)C(O)(c1ccccc1)c1ccccc1)c1ccc(F)cc1,inactive: 0.461%
20,CN(C(=O)Cc1ccccc1)[C@@H]1CC[C@]2(CCCO2)C[C@H]1N1CCCC1,inactive: -0.143%
21,CCOP1(=S)c2c(C)nn(CCC#N)c2N=C(c2ccc(F)cc2)N1C (stereo unspecified),inactive: -0.712%

row,Structure (SMILES),inhibition
1,NC(=O)Nc1ccc([As](=O)(O)O)cc1,inactive: 5.82%
2,COc1cc(C(=O)NCC2(N3CCOCC3)CCCCC2)cc(Cl)c1OC(C)C,inactive: 3.44%
3,CS(=O)(=O)c1ccc(Cl)c(NC(=O)COC(=O)C(O)(c2ccccc2)c2ccccc2)c1,inactive: -1.82%
4,O=C(OC1CN2CCC1CC2)c1ccc(Cl)cc1 (stereo unspecified),inactive: -4.31%
5,CCOP(=O)(Nc1cccc2ccccc12)OCC,inactive: 8.88%
6,CCCOP(=S)(Nc1nc(N)cc(=O)[nH]1)OCCC,inactive: -3.88%
7,Cc1ccc(NCCc2c([N+](=O)[O-])cc([N+](=O)[O-])cc2[N+](=O)[O-])cc1,inactive: -1.66%
8,Nc1cccc2c([As](=O)(O)O)cccc12,inactive: 2.78%
9,O=P1(N(CCCl)CCCl)NCCC(C(F)(F)F)O1 (stereo unspecified),inactive: -3.28%
10,CC(C)(C)C(=O)NC(Sc1ncccn1)C(Cl)(Cl)Cl (stereo unspecified),inactive: 0.462%
11,CN(CCCl)Cc1cc(Cl)c(NC2=NCCN2)c(Cl)c1,inactive: 1.23%
12,CCOP(=O)(Nc1ccc(C)cn1)OCC,inactive: 1.69%
13,CCC1=CC2Cc3nc4ccc(Cl)cc4c(N)c3C(C1)C2 (stereo unspecified),inactive: 0.086%
14,CCOP(=O)(NC(=NC(C)c1ccccc1)NC(C)c1ccccc1)OCC (stereo unspecified),inactive: 1.97%
15,CN(C(=O)Cc1ccc(Cl)c(Cl)c1)[C@@H]1CCCC[C@H]1N1CCCC1,inactive: -1.53%
16,CC(C)/C=N\N=C(\N)N[N+](=O)[O-],inactive: 1.74%
17,CN(C(=O)Cc1ccc(Cl)c(Cl)c1)C1CCCC[C@@H]1N1CCCC1 (stereo partly specified),inactive: -4.66%
18,COc1ccccc1CNC(=O)COC(=O)C(O)(c1ccccc1)c1ccccc1,inactive: 4.07%
19,O=C(/C=C/c1ccccc1)OC1CN2CCC1CC2 (stereo unspecified),inactive: 1.13%
